Test results: PubChem BioAssay AID1480 (NMMLSC, 2009)
Only a part is listed here, and it is no random draw. Some tests of the compounds listed are not included; inactive here does not mean inactive elsewhere. Activity calls are given as the source filed them.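 The calls were made as follows: active = fluorescence in ABCG2-expressing cells above the plate's control-well mean plus 3 SD (cut at about 15 in these data); inactive = the rest.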

Test: compound autofluorescence in ABCG2-expressing IgMXP3 cells, confirmation, artefact control for ABC transporter inhibitor project, cell-based, 488/530 nm, flow cytometry (AID 1480)
Settings: compound autofluorescence 488/530 nm, at 6.6 µM, hits give high values
Method in brief: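 Material: ABCG2-expressing drug-resistant IgMXP3 cells | Input: 3 million cells/mL final | Medium: JC-1 kit assay buffer | Probe or stimulus: no JC-1 substrate | Times: Cell–compound exposure 10 min, 25 °C, end-over-end rotation | Measured by: High-throughput flow cytometry, green FL1 channel fluorescence | Evaluation: Compound-well median cell fluorescence minus DMSO-well median fluorescence | Benchmarks: DMSO-only wells as cell background reference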

SMILES: CN(C)c1cccc(C(=O)NCC2(N(C)C)CCCCC2)c1
- fluorescence: inactive: -1.19
